# Paper PMC4949121 (Inorganic chemistry, 2016)
# Assay: 64Cu radiolabeling of cetuximab conjugates, specific activity
# Conditions: ~2 chelators per antibody; 0.1 M ammonium acetate pH 6.8, 37 °C, 1 h; radio-iTLC
row,Substance,specific activity
1,^64Cu-NE3TA-cetuximab: 64Cu-labeled cetuximab (anti-EGFR monoclonal antibody) modified with ~2 NE3TA per antibody,9–10 μCi/μg
2,^64Cu-NOTA-cetuximab: 64Cu-labeled cetuximab conjugate prepared from cetuximab and SCN-Bn-NOTA [reference compound],3–4 μCi/μg
